Reference: patent US6153391A, “Interruption of binding of MDM2 and P53 protein and therapeutic application thereof” (University of Dundee, priority 1998, dated 2000)

Chains of the proteins cited; added tags and fusions are not shown.
UniProt P23804, whole entry: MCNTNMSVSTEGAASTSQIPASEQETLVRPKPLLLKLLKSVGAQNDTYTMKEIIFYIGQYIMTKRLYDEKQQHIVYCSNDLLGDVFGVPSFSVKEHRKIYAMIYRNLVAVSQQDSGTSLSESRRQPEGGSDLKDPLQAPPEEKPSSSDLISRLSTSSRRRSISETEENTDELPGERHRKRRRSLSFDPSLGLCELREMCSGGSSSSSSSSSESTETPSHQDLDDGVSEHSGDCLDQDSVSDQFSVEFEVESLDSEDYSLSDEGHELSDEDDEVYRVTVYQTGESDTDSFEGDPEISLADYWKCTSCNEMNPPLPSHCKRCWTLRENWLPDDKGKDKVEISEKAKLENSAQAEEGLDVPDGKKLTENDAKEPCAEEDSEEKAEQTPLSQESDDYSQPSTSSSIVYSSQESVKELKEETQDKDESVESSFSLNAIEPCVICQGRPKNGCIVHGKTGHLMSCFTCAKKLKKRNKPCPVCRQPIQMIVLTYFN

Molecular target: T1, mouse MDM2 (Mus musculus, UniProt P23804)
T1 construct: gene PCR-cloned from mouse prostate cell line
Experiment: ELISA of MDM2 binding to immobilised biotinylated p53 peptides (peptide library, alanine and conserved substitution series)
Conditions: 15-mer biotinylated peptides on streptavidin ELISA plates; SF9 insect cell extract expressing mouse MDM2; detection with 4B2

**Q.** Which “binding of MDM2 to p53 library peptide” value does the source give for QETFSDLWKLLPENN [Peptide 6] here?
**A.** The value was “bind MDM2”.
